Ab-14 light chain CDR variants: yeast mating affinities

The target is the same throughout: PDVDLGDISGINAS, from the HR2 region of SARS-CoV-2 spike.

The variants keep the heavy chain, the linker and the frameworks of Ab-14 (scFv order VH, a 15-residue (Gly4Ser)3 linker, VL).
VH: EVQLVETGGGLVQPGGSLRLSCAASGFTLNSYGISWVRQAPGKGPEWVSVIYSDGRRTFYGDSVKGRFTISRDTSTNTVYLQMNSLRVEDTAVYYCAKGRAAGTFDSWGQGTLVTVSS
VL: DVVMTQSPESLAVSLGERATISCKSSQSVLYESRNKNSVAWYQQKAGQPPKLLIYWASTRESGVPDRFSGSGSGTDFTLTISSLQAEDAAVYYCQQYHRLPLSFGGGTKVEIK

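The parent was found by panning a naive human phage display library on the peptide. These sequences belong to a second round, designed from the earlier measurements on random variants of the parent. Group labels follow the data file (Ctrl: baseline library sampled from a position-specific scoring matrix, with some repeated check sequences; En: ensemble of fine-tuned language models; GP: Gaussian process model; HC: hill climbing; Gen: genetic algorithm; Gibbs: Gibbs sampling; a sequence that several methods proposed may carry one label only). In AlphaSeq, yeast of one mating type display the scFv and yeast of the other type display the target. After mating in shaken culture at 30 °C for 16 h, diploids were selected and their barcode pairs sequenced. Each replicate has its own calibration line, from reference interactions of the BCL2 family. There are six technical replicates.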

Each variant is given by its three light chain CDRs, as the data file delimits them; those of the parent are KSSQSVLYESRNKNSVA, WASTRES, QQYHRLPLS. This list holds designs with more than six substitutions. Kd is apparent (estimated from mating counts) and averaged on the log scale over replicates with a signal. Smaller is tighter. "nd" marks a missing value. The strain was present, yet no cells mated with the target were sequenced in any replicate, which points to weak or no binding. Entries are sorted by rising average, undetected variants last. The authors averaged sequences with at least three values out of six and counted those with two or fewer as poor binders. The range of this assay differs from that of the first round, and the authors advise against merging the two. Empty control strains, which show no peptide, gave a signal in 4% of pairings with all light chain designs; the median was 430 nM and 95% of these signals were weaker than 38 nM. No background was subtracted. The parent sequence was in this pool as ten entries: three were never detected, three once, and four in most replicates, with averages from 2.2 nM to 240 nM.

Variant KLGQSQAMTSRNKNNVA | DLNERER | QQYHRLPLS [En_HC] showed 220 pM (6 of 6 replicates).
Variant KLSASQLYESRASNAVA | QASQRMD | QQYHRLPLS [GP_Gibbs] showed 340 pM (6 of 6 replicates).
Variant KFSQEVGMESRNMNSVA | NASTREE | QQYHRLPLS [GP_Gibbs] showed 900 pM (6 of 6 replicates).
Variant KISQLVNFEGKGKNSVA | QMSTRES | QQYDRLPLS [En_HC] showed 1.3 nM (6 of 6 replicates).
Variant KLSSITGTEKVHGNNVA | EMETRER | QQYNRLPLS [En_Gen] showed 1.3 nM (6 of 6 replicates).
Variant KISQSILFMSGIKNAIA | QMEMREE | QQYHRLPLS [En_HC] showed 1.5 nM (5 of 6 replicates).
Variant KVSPSMWYESRNKNAVA | HASQRES | QQYHRLPLQ [GP_Gibbs] showed 1.7 nM (6 of 6 replicates).
Variant HITYGMMLAGRHSSSIA | QAEERAK | QQYDRLPLI [En_Gen] showed 2.1 nM (6 of 6 replicates).
Variant MAYGGDMVESVARNSVA | NAETRAD | QDYHRLPLS [En_HC] showed 2.6 nM (6 of 6 replicates).
Variant KIQQHRLGTEQYLNAIA | NEQVRED | QQYMQLPLI [En_Gibbs] showed 2.9 nM (6 of 6 replicates).
Variant KISMMINMTFEQSNNVA | EMVTRCK | QQYNRLPLS [En_Gen] showed 3.3 nM (6 of 6 replicates).
Variant MVGQGLMGESRAKNSIA | QASLREE | QQYHRLPLI [En_HC] showed 4.2 nM (6 of 6 replicates).
Variant HISTLMRYESSLKNAIA | NAQTRES | QQYHRLPLS [En_HC] showed 4.6 nM (6 of 6 replicates).
Variant MLSDVVMQGSYSRNSVA | QESTRAE | QQYHHLPLS [En_HC] showed 6.2 nM (6 of 6 replicates).
Variant TLMHHQDRQDEWKKSIA | NAIIRER | QQYSRLPLA [En_Gibbs] showed 7.8 nM (6 of 6 replicates).
Variant QLQFLDVQYGVKEQAIA | EENQRMQ | QHYFRLPLS [En_Gibbs] showed 8.4 nM (6 of 6 replicates).
Variant KSSISMLYEERMDNSVA | NASQRES | QQYHRLPLS [GP_Gibbs] showed 11 nM (6 of 6 replicates).
Variant KIAYMGEHFSTNHSAIA | QASTREQ | QQYHRLPIS [En_HC] showed 11 nM (6 of 6 replicates).
Variant MMSQVTGMGQRHRNNVA | QTSMRET | QQYDRLPLI [En_Gen] showed 12 nM (6 of 6 replicates).
Variant ILSDHAVNQYDEADSIA | DKTENAQ | QQYARLPLS [En_Gibbs] showed 14 nM (6 of 6 replicates).
Variant QINVNRLMNYTMNNAIA | GKTLRVD | QQYAQLPLS [En_Gibbs] showed 20 nM (6 of 6 replicates).
Variant HIQGYFTMPENANNNIA | DKHYQVR | QQYYRLPLA [En_Gibbs] showed 20 nM (3 of 6 replicates).
Variant TIGGTLMYGMRNRSNVA | EVSQRLN | QQYDRLPLM [En_Gen] showed 21 nM (6 of 6 replicates).
Variant KIMQSLNYQQFNVSNVA | GQETRER | QSYHRLPLS [En_HC] showed 43 nM (6 of 6 replicates).
Variant SLMNLMGGVEEMKNSIA | NHEIGVR | QQYAHLPLV [En_Gibbs] showed 58 nM (5 of 6 replicates).
Variant MVSMMPNEPTRYSNAIA | DHSQRNT | QQYDQLPLS [En_Gibbs] showed 59 nM (5 of 6 replicates).
Variant MIFYGQERDIAHENSIA | NDHEVSK | QQYYRLPLT [En_Gibbs] showed 64 nM (6 of 6 replicates).
Variant MISQLYNMGQFAINSVA | QANLRNE | QQYDRLPLA [En_Gen] showed 82 nM (1 of 6 replicates).
Variant CQSQRNLDEERNKNSVA | SASTRPS | QQYHRLPLG [Ctrl] showed 140 nM (4 of 6 replicates).
Variant IVSQLMIWGTHVKNSIA | EAQTRVN | QQYDRLPLI [En_Gen] showed 140 nM (3 of 6 replicates).
Variant VLMGWGADQIQHANSVA | DADEVDM | QQYAHLPLS [En_Gibbs] showed 190 nM (6 of 6 replicates).
Variant KLSQITGHLSVSKNNVA | EMVTRYN | QQYDRLPLS [En_Gen] showed 210 nM (5 of 6 replicates).
Variant MFSYNLHDMGANKHSVA | EMNKVTG | QDYHRLPLS [En_Gibbs] showed 430 nM (4 of 6 replicates).
Variant MISQLYNMGTFAINSVA | QASVRNE | QQYDRLPLM [En_Gen] showed 470 nM (3 of 6 replicates).
Variant TISMSMNWLTFNKDNIA | EESTREK | QQYDRLPLS [En_HC] showed nd (0 of 6 replicates).
Variant VFSGLFQYDEQSYNSVA | EASLSNT | QQYISLPLS [En_Gibbs] showed nd (0 of 6 replicates).
Variant KLSQYVGGESRNKSSLA | DNSTREE | QQYHRLPLS [En_HC] showed nd (0 of 6 replicates).

A selection of 4 entries from above:

CDR-L1,CDR-L2,CDR-L3,group,Kd,detected
MAYGGDMVESVARNSVA,NAETRAD,QDYHRLPLS,En_HC,2.6 nM,6 of 6
KVSPSMWYESRNKNAVA,HASQRES,QQYHRLPLQ,GP_Gibbs,1.7 nM,6 of 6
VFSGLFQYDEQSYNSVA,EASLSNT,QQYISLPLS,En_Gibbs,nd,0 of 6
MLSDVVMQGSYSRNSVA,QESTRAE,QQYHHLPLS,En_HC,6.2 nM,6 of 6

From the AlphaSeq antibody data of Li et al. 2023 (doi:10.1038/s41467-023-39022-2), copy in the FLAb collection.